In PMC4588578, “Targeting substrate-site in Jak2 kinase prevents emergence of genetic resistance” (Scientific Reports, 2015):

Tested on: purified kinase domains having ruxolitinib resistant mutations

Cc1cnc(Nc2ccc(OCCN3CCCC3)cc2)nc1Nc1cccc(S(=O)(=O)NC(C)(C)C)c1 [fedratinib]
resistance of purified kinase domains having ruxolitinib resistant mutations: but not to fedratinib
